# Values quoted from earlier work as cited in patent publication US6602296B1, “Chemical supplementation of bone” (The University of Western Australia, priority 1997, dated 2003).
# Conditions: after intravenous administration; cited from earlier work
substance,measurement,value
gentamicin Sulphate,recommended peak serum concentration,10 mg/L
